The values that follow come from patent US20250090629A1, “ALLEVIATING DRUG NEPHROTOXICITY” (The Trustees of Indiana University, priority 2021, published 2025).

This data set relates to uninephrectomy chronic kidney disease model in Munich Wister Fromter rats. The data set is described as follows: Gentamicin induced nephrotoxicity in uninephrectomy chronic kidney disease rat model, with or without RAP. As to conditions: for Serum Cr: daily gentamicin 100 mg/kg intraperitoneal without RAP. The method, then:
Rats with a Chronic Kidney Disease (CKD) background were given either saline or 40 mg/kg RAP. […] Serum creatinine, an indicator of renal function, was measured in both rat populations at day 0, 3, 4, 5, and 6.

Consider gentamicin [reference compound], for which the “Serum creatinine (indicator of renal function), change over time” value (CKD rats, saline vehicle plus gentamicin 100 mg/kg intraperitoneal daily for five days, day 0, 3, 4, 5, 6, FIG. 1) is reported as “increase in serum creatinine”. The “Serum Cr” value is 3.1 ± 0.4 mg/dL (day 5) and 5.4 ± 0.8 mg/dL (day 6). The 24-hour creatinine clearance (gentamicin without RAP, CKD pretreatment baseline 0.91=0.22 ml/min) is 0.09 ± 0.07 mL/min.
